In patent US20220184072A1 (priority 2019, published 2022):

Test system: C57 mice
Assay: Formalin paw test (inflammatory pain model)
Type: in vivo
Conditions: SC 1.0 mg/kg; 0-10 min

In the case of `O=C1CN2c3c(cccc3[C@@H]3CN(CCCOc4ccc(F)cc4)CC[C@@H]32)N1` [Example 1, (6bR,10aS)-8-(3-(4-fluorophenoxy)propyl)-6b,7,8,9,10,10a-hexahydro-1H-pyrido[3′,4′:4,5]pyrrolo[1,2,3-de]quinoxalin-2(3H)-one], the “Mean Behavior Rating (0-4)” value is reported as 1.3.
